Tests used:
[1] = biological target: farnesyl protein transferase (Homo sapiens, UniProt P49354+P49356); experiment: FPT IC50 (inhibition of farnesyl protein transferase, in vitro enzyme assay); conditions: read-out: FPT IC50
Protocol: (§1) FPT IC50 (inhibition of famesyl protein transferase, in vitro enzyme assay) and COS Cell IC50 (Cell-Based Assay) were determined following the assay procedures described in WO 95/10516, published Apr. 20, 1995. GGPIT IC50 (inhibition of geranylgeranyl protein transferase, in vitro enzyme assay), Cell Mat Assay, and anti-tumor activity (in vivo anti-tumor studies) could be determined by the assay procedures described in WO 95/10516. The disclosure of WO 95/10516 is incorporated herein by reference thereto.

Sequences of proteins named here, by UniProt entry; tags and fusion partners are left off.
UniProt P49356, whole entry: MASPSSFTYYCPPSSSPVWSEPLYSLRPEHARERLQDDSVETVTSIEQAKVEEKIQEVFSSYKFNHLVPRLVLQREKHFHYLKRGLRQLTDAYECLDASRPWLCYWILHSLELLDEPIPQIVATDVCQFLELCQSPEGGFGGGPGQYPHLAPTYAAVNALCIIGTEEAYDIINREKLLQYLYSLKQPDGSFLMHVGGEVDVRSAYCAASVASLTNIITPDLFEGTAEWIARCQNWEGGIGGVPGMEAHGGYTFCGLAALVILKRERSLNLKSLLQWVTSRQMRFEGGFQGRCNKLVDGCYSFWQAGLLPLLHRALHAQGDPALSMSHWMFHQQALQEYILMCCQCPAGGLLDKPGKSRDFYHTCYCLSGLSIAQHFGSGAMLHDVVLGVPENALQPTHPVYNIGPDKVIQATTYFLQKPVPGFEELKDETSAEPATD

[2] = test system: COS Cell; experiment: COS Cell IC50 (Cell-Based Assay); conditions: read-out: COS Cell IC50
Protocol: as §1

SMILES | IC50 [1] | IC50 [2]
O=C(CC1CCSCC1)N1CCC([C@H]2c3ncc(Br)cc3CCc3cc(Cl)cc(Br)c32)CC1 | 3.5 nM | 143 nM
O=C(C=C1CCOCC1)N1CCC([C@H]2c3ncc(Br)cc3CCc3cc(Cl)cc(Br)c32)CC1 | 5.5 nM | 285 nM

— patent US6440974B2, “Compounds useful for inhibition of farnesyl protein transferase” (Schering Corporation, priority 1997, dated 2002)
